Test results published in patent US8846929B2, “Substituted-quinoxaline-type piperidine compounds and the uses thereof” (priority 2007, dated 2014).

Amino acid sequences for entries named in this document (tags omitted). A change or cut given only in a name is not applied to a line headed by its entry.
UniProt P41146: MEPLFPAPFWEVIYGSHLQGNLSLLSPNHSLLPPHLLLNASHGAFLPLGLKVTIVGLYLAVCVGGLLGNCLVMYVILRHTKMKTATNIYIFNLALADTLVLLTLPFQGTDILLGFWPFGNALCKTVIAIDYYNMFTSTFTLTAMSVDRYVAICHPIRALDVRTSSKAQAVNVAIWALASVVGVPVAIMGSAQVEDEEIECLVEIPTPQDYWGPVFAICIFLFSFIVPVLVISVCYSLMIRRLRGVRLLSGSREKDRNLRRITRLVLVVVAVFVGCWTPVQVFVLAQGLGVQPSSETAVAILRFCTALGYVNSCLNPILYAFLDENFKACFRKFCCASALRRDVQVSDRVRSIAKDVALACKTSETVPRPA
UniProt P35372: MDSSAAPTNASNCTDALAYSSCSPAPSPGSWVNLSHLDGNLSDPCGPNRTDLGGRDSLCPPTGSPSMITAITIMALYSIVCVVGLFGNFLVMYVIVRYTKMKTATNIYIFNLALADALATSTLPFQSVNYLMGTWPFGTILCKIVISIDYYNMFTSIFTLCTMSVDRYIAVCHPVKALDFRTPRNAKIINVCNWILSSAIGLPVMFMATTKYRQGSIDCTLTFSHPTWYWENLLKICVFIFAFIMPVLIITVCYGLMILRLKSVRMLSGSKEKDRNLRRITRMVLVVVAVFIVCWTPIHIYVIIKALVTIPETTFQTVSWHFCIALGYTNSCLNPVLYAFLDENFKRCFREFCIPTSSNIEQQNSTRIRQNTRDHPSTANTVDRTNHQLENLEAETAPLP
UniProt P41145: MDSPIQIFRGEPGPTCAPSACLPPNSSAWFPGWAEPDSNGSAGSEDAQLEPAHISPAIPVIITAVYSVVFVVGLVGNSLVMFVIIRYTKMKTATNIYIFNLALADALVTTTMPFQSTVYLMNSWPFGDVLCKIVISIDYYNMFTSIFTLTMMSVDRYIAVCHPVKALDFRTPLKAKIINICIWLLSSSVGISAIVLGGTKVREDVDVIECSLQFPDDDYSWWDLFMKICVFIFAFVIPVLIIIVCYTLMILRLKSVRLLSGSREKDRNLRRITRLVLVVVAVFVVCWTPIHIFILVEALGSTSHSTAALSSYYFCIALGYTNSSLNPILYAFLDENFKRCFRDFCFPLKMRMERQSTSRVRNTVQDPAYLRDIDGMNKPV
UniProt P41143: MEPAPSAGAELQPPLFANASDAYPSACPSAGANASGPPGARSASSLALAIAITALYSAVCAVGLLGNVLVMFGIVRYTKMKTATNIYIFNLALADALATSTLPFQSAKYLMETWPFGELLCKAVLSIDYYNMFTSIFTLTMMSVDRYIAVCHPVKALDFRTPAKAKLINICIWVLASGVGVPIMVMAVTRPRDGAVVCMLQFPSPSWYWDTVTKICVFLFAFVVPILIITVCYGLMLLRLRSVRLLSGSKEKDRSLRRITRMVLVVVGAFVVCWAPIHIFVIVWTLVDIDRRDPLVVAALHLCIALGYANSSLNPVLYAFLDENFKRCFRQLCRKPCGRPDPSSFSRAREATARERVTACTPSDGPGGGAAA

What was measured:
[1] = molecular target: T1, human opioid receptor-like (ORL-1) (Homo sapiens (Human), UniProt P41146); assay: In vitro ORL-1 receptor [35S]GTPγS functional assay; format: biochemical; conditions: mean ± SEM; for EC50: read-out: GTPγS ORL-1 EC50
μ-opioid receptor = μ-opioid receptor (Homo sapiens (Human), UniProt P35372); assay: In vitro mu-opioid receptor binding assay ([3H]-diprenorphine displacement); conditions: read-out: Ki [Average ± Std Deviation] Opioid Receptor Mu
kappa opioid receptor [2] = molecular target: T2, kappa opioid receptor (Homo sapiens (Human), UniProt P41145); assay: In vitro kappa-opioid receptor [35S]GTPγS functional assay; format: biochemical; conditions: mean ± SEM; for EC50: read-out: GTPγS Opioid Receptor Kappa EC50
delta opioid receptor = delta opioid receptor (Homo sapiens (Human), UniProt P41143); assay: In vitro delta-opioid receptor binding assay ([3H]-Naltrindole displacement); conditions: read-out: Ki [Average ± Std Deviation] Opioid Receptor Delta; recombinant receptor expressed in CHO-K1 cells
[3] = molecular target: T1, human opioid receptor-like (ORL-1); assay: In vitro ORL-1 receptor binding assay ([3H]-nociceptin displacement); conditions: read-out: Ki [Average ± Std Deviation] ORL-1; membranes from recombinant HEK-293 cells
kappa opioid receptor [4] = molecular target: T2, kappa opioid receptor; assay: In vitro kappa-opioid receptor binding assay ([3H]-U69,593 displacement); conditions: read-out: Ki [Average ± Std Deviation] Opioid Receptor Kappa; membranes from recombinant HEK-293 cells

Row | Substance | GTPγS ORL-1 Emax [1] [%] | EC50 [1] [µM] | Ki (μ-opioid receptor) [µM] | GTPγS Opioid Receptor Kappa Emax (kappa opioid receptor [2]) [%] | EC50 (kappa opioid receptor [2]) [µM] | Ki (delta opioid receptor) [µM] | Ki [3] [µM] | Ki (kappa opioid receptor [4]) [µM]
1 | 1-(2-(4-((endo)-8-cyclooctyl-8-azabicyclo[3.2.1]octan-3-yl)-3-oxo-3,4-dihydroquinoxalin-2-ylamino)acetyl)pyrrolidine-2-carboxylic acid | 73.3 ± 1.7 | 3.86 | 1.47 | 6.3 | 4.59 | > 20 | 0.14 | 0.75
2 | 1-(4-((endo)-8-cyclooctyl-8-azabicyclo[3.2.1]octan-3-yl)-3-oxo-3,4-dihydroquinoxalin-2-yl)piperidine-4-carboxylic acid | 74.7 ± 4.5 |  | 1.67 | 0.7 ± 0.9 | > 100 | 4.47 | 0.109 | 0.657
3 | 1-(4-((endo)-8-cyclooctyl-8-azabicyclo[3.2.1]octan-3-yl)-3-oxo-3,4-dihydroquinoxalin-2-ylamino)cyclohexanecarboxylic acid | 39 ± 1 | 1.77 | > 20 | 0 | > 20 | > 20 | 0.237 | 0.92
4 | 2-(4-((endo)-8-cyclooctyl-8-azabicyclo[3.2.1]octan-3-yl)-3-oxo-3,4-dihydroquinoxalin-2-ylamino)acetic acid | 55.3 ± 5.8 | 0.4 | 1.17 |  |  | 12.9 | 0.0614 | 2.84
5 | 3-oxo-4-((endo)-9-(2,4,4-trimethylpentan-2-yl)-9-azabicyclo[3.3.1]nonan-3-yl)-3,4-dihydroquinoxaline-2-carboxylic acid | 105.3 ± 5.7 | 0.017 | > 20 |  |  | > 20 | 0.0028 | 16.8
6 | 4-(1-cyclooctylpiperidin-4-yl)-3-oxo-3,4-dihydroquinoxaline-2-carboxylate | 65.3 ± 2.6 | 0.964 | 7.43 |  |  | 31.7 | 0.111 | 1.03
7 | 4-((endo)-8-((cis)-4-isopropylcyclohexyl)-8-azabicyclo[3.2.1]octan-3-yl)-3-oxo-3,4-dihydroquinoxaline-2-carboxylic acid | 67.8 ± 1.9 | 3.57 | 5.3 |  |  | 68.8 | 0.131 | 2.06
8 | 4-((endo)-9-((exo)-bicyclo[3.3.1]nonan-9-yl)-9-azabicyclo[3.3.1]nonan-3-yl)-3-oxo-3,4-dihydroquinoxaline-2-carboxylic acid | 97.5 ± 1.3 | 0.106 | 3.43 |  |  | 2.14 | 0.0085 | 4.47
9 | 4-((endo)-9-cyclooctyl-3-oxa-9-azabicyclo[3.3.1]nonan-7-yl)-3-oxo-3,4-dihydroquinoxaline-2-carboxylic acid | 95.8 ± 3.6 | 4.25 | 46 |  |  | 533 | 0.26 | 6
10 | 4-((exo)-8-cyclooctyl-8-azabicyclo[3.2.1]octan-3-yl)-3-oxo-N-(6-oxo-1,6-dihydropyridin-3-yl)-3,4-dihydroquinoxaline-2-carboxamide | 115 ± 5 | 1.36 | 9.84 |  |  | > 100 | 0.103 | 2.6
11 | endo-4-(9-adamantan-1-yl)-9-aza-bicyclo[3.3.1]non-3-yl)-3-oxo-3,4-dihydro -quinoxaline-2-carboxylic acid | 60.0 ± 1.7 | 1.83 | 17.2 |  |  | 39.4 | 0.0291 | 5.04
